Literature values as cited in patent US20240238195A1, “METHODS AND COMPOSITIONS FOR INHIBITING A NOXIOUS INSULT” (priority 2018, published 2024).

Test system: rats
Conditions: cited from earlier work

For zinc nitrate, the “relative lethality (LD50 ranking)” value is given as “less lethal”.
